Measurements published in ChEMBL document CHEMBL3745681, “Synthesis, Biological Evaluation, and Utility of Fluorescent Ligands Targeting the μ-Opioid Receptor” (2015).

Amino acid sequences for entries named in this document (tags omitted).
UniProt P35372, whole entry, looked up: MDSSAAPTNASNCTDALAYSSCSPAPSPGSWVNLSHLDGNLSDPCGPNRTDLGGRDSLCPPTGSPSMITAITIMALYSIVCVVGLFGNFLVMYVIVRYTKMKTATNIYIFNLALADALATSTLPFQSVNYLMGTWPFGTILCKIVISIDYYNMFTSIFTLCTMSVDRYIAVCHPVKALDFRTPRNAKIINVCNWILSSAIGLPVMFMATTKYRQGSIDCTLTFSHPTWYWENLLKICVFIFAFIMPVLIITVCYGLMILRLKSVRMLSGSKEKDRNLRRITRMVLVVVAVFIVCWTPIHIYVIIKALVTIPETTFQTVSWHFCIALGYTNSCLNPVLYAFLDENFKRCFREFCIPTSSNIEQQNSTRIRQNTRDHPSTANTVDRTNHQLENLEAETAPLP

Key:
Mu-type opioid receptor [1] = molecular target: T1, Mu-type opioid receptor (Homo sapiens, UniProt P35372); experiment: Displacement of [3H]DAMGO from human MOR expressed in HEK293 cells preincubated for 1 hr followed by radioligand addition measured after 1 hr by liquid scintillation counting analysis
Mu-type opioid receptor [2] = molecular target: T1, Mu-type opioid receptor; experiment: Displacement of 2-((1E,3E,5E)-5-(1-Ethyl-3,3-dimethyl-5-sulfoindolin-2-ylidene)-penta-1,3-dien-1-yl)-1-(6-((6-((6S,7R,7aR,12bS)-9-hydroxy-7-methoxy-3-methyl-1,2,3,4,5,6,7,7a-octahydro-4a,7-ethano-4,12-methanobenzofuro[3,2-e]isoquinoline-6-carboxamido)hexyl)-amino)-6-oxohexyl)-3,3-dimethyl-3H-indol-1-ium-5-sulfonate,2,2,2-Trifluoroacetate Salt from human MOR expressed in HEK293 cells by Cheng-Pruso

With `CO[C@]12CC[C@@]3(C[C@@H]1C(C)(C)O)[C@H]1Cc4ccc(O)c5c4[C@@]3(CCN1CC1CC1)[C@H]2O5` the pKi (Mu-type opioid receptor [1]) was 9.7 and the pKi (Mu-type opioid receptor [2]) was 9.91.
